# Values of other authors in US20120295320A1, “APPARATUS AND METHOD FOR TREATMENT OF MICROORGANISMS DURING PROPAGATION, CONDITIONING AND FERMENTATION USING STABILIZED CHLORINE DIOXIDE/SODIUM CHLORITE WITH HOPS ACID EXTRACTS” (RESONANT BIOSCIENCES, LLC, priority 2010, published 2012).
# Test system: fermentation
# Conditions: background statement, fermentation mixture
substance,measurement,value
Virginiamycin,concentration that will suppress fermentation,over 2 mg/L
